Assay outcomes: PubChem, National Center for Advancing Translational Sciences (NCATS)
miR-21 reporter: miR-21 reporter, rising signal | HeLa miR-21 FLuc reporter, luciferase, 48 h | Potency, µM (top dose mostly 38.3 µM), inactives show at the top dose reporter change, positive = more light | 340,000 tested, under 10 active | AID 2288; active = well fitted rising curve with a large enough effect; inconclusive = small, poorly fitted or top-dose-only effect; inactive = no such curve, though single readings can be large or run the other way;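 further: % of control where 0% means no effect; miR-21 action dims this reporter so a rising signal means less miR-21 action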
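Using DMEM plus 10% FBS, HeLa miR-21-FLuc cells are incubated with test compounds (final up to about 40uM) for 48 hours; firefly luciferase signal is then imaged following reagent-mediated lysis.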
TDP1 block: blocks human tyrosyl-DNA phosphodiesterase 1 | Q9NUW8 | recombinant TDP1, AlphaScreen DNA substrate cleavage | Potency, µM (highest dose often 130 µM), without a hit: top-dose activity change, negative = inhibition, actives largely listed as inhibitors | hit rate 0.28% among 350,000 | AID 485290; also: potency is read from the fitted curve at half-maximal effect; % is scaled to controls: 0 for no effect and ±100 for the full control effect; nearly all actives have a fitted effect of over 40% in size
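Enzyme-compound mixtures sat 15 min at room temperature, followed by a 5 min reaction with 15 nM final substrate and 10 min with AlphaScreen beads. Recombinant human Tdp1 was used at 1 nM final.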
DT40 TDP1 no CPT: qHTS for Inhibitors of human tyrosyl-DNA phosphodiesterase 1 (TDP1): qHTS in cells in absence of CPT; DT40 Tdp1-/- hTDP1 cells, no CPT, ATP luminescence, 48 h; Potency, µM (titrated, usually from 46.2 µM), for inactives: top-dose activity change, negative = growth inhibition, most hits filed as inhibitors; hit rate 15% among 420,000; also: potency is read from the fitted curve at half-maximal effect; % is scaled to controls: 0 for no effect and ±100 for the full control effect; nearly all actives have a fitted effect of over 55% in size
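Chicken DT40 Tdp1-/- cells complemented with human TDP1, screened without camptothecin (DMSO vehicle only), 400 cells/well. Compounds pin-transferred, cells incubated at 37 °C for at least 48 hr. Growth read as ATP-dependent luminescence (CellTiter-Glo, 30 min at RT).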
uPA generation: blocks generation of uPA at the cell surface; cell surface uPA generation assay, qHTS; hit rate 0.31% among 330,000; Potency, µM (highest dose often 38.3 µM), inactives show at the top dose activity change, negative = inhibition, hits mostly inhibitors; active = well fitted inhibition curve with a large enough effect; inconclusive = small, poorly fitted or top-dose-only effect; inactive = no such curve, though single readings can be large or run the other way; tested in mouse RAW 264.7 cells; also: potency is read from the fitted curve at half-maximal effect; % is scaled to controls: 0 for no effect and ±100 for the full control effect; nearly all actives have a fitted effect of over 55% in size
TDP1 cell CPT: DT40-hTDP1 cell growth loss with CPT; chicken DT40 Tdp1-/-;hTDP1 cells + 20 nM CPT, ATP luminescence, 48 h; Potency, µM (series often up to 46.2 µM), for inactives: at the highest dose activity change, negative = growth inhibition, hits mostly inhibitors; hit rate 12% among 420,000; also: potency is read from the fitted curve at half-maximal effect; % is scaled to controls: 0 for no effect and ±100 for the full control effect; nearly all actives have a fitted effect of over 55% in size
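Chicken DT40 Tdp1-/- cells stably complemented with human TDP1 were seeded at 400 cells/well in medium containing 20 nM camptothecin, exposed to pin-transferred compounds, and grown at 37 °C for at least 48 hr. Viability was read as ATP luminescence.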
An asterisk follows results filed as active; u = inconclusive; x = no result; [ ] = remark or other dose. An excerpt weighted towards active compounds, which were near 16% of everything screened. Unless noted, calls follow the shape of the dose curve; as a rule, active = well fitted curve in the direction sought with a large enough effect; inconclusive = small, poorly fitted or top-dose-only effect, or another doubt; inactive = no such curve, though single readings can be large; an effect the other way counts as inactive or inconclusive.

SMILES | miR-21 reporter | TDP1 block | DT40 TDP1 no CPT | uPA generation | TDP1 cell CPT
c1ccc(COc2ccc(-c3cc4nc(NCCOc5ccccc5)ccn4n3)cc2)cc1 | x | x | u | x | 23.1µM*
CC(C)(C)n1ncc2c(=O)n(Cc3cc(F)c(Cl)cc3Cl)cnc21 | x | -3.9% | x | 16.1% | x
CC(C)NC(=O)C1CCN(C(=O)N2CC(C)Oc3ccccc32)CC1 (stereo unspecified) | -36.0% | -5.2% | -8.1% | x | 9.9%
CCC1CN(C(=O)N2CCC(C(=O)N3CCN(c4ccc(F)cc4)CC3)CC2)c2ccccc2O1 (stereo unspecified) | -23.2% | 1.3% | 20.6µM* | x | 13µM*
CCC1CN(C(=O)N2CCC(C(=O)N3CCN(c4cc(C)ccc4C)CC3)CC2)c2ccccc2O1 (stereo unspecified) | -21.1% | 1.3% | 14.6µM* | x | 16.4µM*
CCC1CN(C(=O)N2CCC(C(=O)N3CCN(c4cccc(C)c4C)CC3)CC2)c2ccccc2O1 (stereo unspecified) | 25.4% | 2.6% | 5.8µM* | x | 7.31µM*
Cc1cccc(N2CCN(C(=O)C3CCN(Cc4nc(-c5ccc(Cl)cc5)oc4C)CC3)CC2)c1C | -1.3% | -2.8% | u | x | u
COc1ccc(N(C(=O)/C=C/c2ccccc2)C2=CC3CCC(C2)N3C)cc1 (stereo unspecified) | -23.4% | 0.0% | u | -4.2% | u
COc1cc(C(=O)NNC(=O)c2cccn2C)cc(OC)c1OC | x | -0.8% | 15.4% | 12.0% | 0.7%
CC1CCN(CC(=O)N2c3ccccc3CC2C)CC1 (stereo unspecified) | -4.9% | 6.3% | -10.6% | 3.0% | 2.6%
CC1Cc2ccccc2N1C(=O)CN1CCc2ccccc2C1 (stereo unspecified) | 0.3% | 2.0% | 25.9µM* | 3.2% | u
Cc1nc2cc(C(=O)N3c4ccccc4CC3C)ccc2s1 (stereo unspecified) | 18.6% | 6.2% | 16.4µM* | -11.9% | u
Cc1nnc(NC(=O)CSc2nc(C(C)C)nc3sc(C)c(C)c23)s1 | 0.5% | 0.0% | 8.2µM* | -3.7% | u
Cc1sc2nc(C(C)C)nc(SCC(=O)N3CCOCC3)c2c1C | -14.9% | 9.6% | u | -1.3% | -27.1%
Cc1sc2nc(C3CC3)nc(SCC(=O)N3c4ccccc4CC3C)c2c1C (stereo unspecified) | -3.7% | 2.9% | 20.6µM* | x | 16.4µM*
CC(C)NC(=O)CC(=O)N/N=C/c1ccccc1F | -3.8% | 2.0% | -14.3% | 3.7% | 15.2%
CC1Cc2ccccc2N1C(=O)CSC1=NCCS1 (stereo unspecified) | -15.9% | 4.0% | u | -29.6% | 10.3µM*
CCc1nc(SCC(=O)Nc2cc(C)on2)c2c(C)c(C)sc2n1 | -0.3% | 7.3% | -7.2% | 2.5% | -28.8%
Cc1cc(NC(=O)CSc2nc(C3CC3)nc3sc(C)c(C)c23)no1 | 2.9% | -5.7% | 8.2µM* | -14.4% | 8.2µM*
CC1Cc2ccccc2N1C(=O)CSc1nc2cc3c(cc2cc1C#N)OCO3 (stereo unspecified) | -10.9% | 0.0% | u | 1.3% | u
Cc1cccc(NC(=O)CSc2ncnc3sc(C)c(C)c23)n1 | -4.7% | x | 18.4µM* | -1.1% | 16.4µM*
Cc1cc2cc3c(cc2nc1SCC(=O)N1c2ccccc2CC1C)OCO3 (stereo unspecified) | -4.9% | 2.4% | 20.6µM* | -9.0% | u
CC(OC(=O)c1ccc(Cl)c(S(N)(=O)=O)c1)C(=O)NCc1ccc2c(c1)OCO2 (stereo unspecified) | x | -8.2%[0.505 µM] | -14.5% | 2.8% | 14.7%
Cc1cccc(C(=O)NCC(=O)OCC(=O)c2ccc(Cl)s2)c1 | -1.4% | 2.5% | 9.8% | -0.3% | -18.2%
O=S(=O)(N1CCCCC1)N1CCN(S(=O)(=O)N2CCCCC2)CC1 | -1.5% | 7.1% | 13.9% | 3.5% | 14.1%
CC(C)Oc1ccc(CNC(=O)c2cc3ccccn3n2)cc1 | -64.0% | -2.6% | -25.3% | x | -29.2%
Cc1ccc(C(=O)NNC(=O)c2nn(-c3ccc(F)cc3)ccc2=O)cc1 | -0.9% | x | -6.4% | 0.2% | 0.3%

Sorted by formula weight (descending): part of the list above
SMILES | miR-21 reporter | TDP1 block | DT40 TDP1 no CPT | uPA generation | TDP1 cell CPT
CCC1CN(C(=O)N2CCC(C(=O)N3CCN(c4cccc(C)c4C)CC3)CC2)c2ccccc2O1 (stereo unspecified) | 25.4% | 2.6% | 5.8µM* | x | 7.31µM*
Cc1ccc(C(=O)NNC(=O)c2nn(-c3ccc(F)cc3)ccc2=O)cc1 | -0.9% | x | -6.4% | 0.2% | 0.3%
CCc1nc(SCC(=O)Nc2cc(C)on2)c2c(C)c(C)sc2n1 | -0.3% | 7.3% | -7.2% | 2.5% | -28.8%
